Experimental data reported in ChEMBL document CHEMBL1145967, “Design, synthesis, and biological activities of classical N-[4-[2-(2-amino-4-ethylpyrrolo[2,3-d]pyrimidin-5-yl)ethyl]benzoyl]-l-glutamic acid and its 6-methyl derivative as potential dual inhibitors of thymidylate synthase and dihydrofolate reductase and as potential antitumor agents” (J Med Chem, 2003).

Target: T1, Dihydrofolate reductase (Homo sapiens, UniProt P00374)
T1 sequence (P00374 whole entry): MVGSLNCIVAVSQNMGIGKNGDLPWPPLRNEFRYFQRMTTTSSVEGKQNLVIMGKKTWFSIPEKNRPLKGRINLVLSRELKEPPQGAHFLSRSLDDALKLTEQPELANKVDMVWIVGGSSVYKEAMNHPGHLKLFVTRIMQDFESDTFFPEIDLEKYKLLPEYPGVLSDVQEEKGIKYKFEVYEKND

Nc1nc2[nH]cc(CCc3ccc(C(=O)N[C@@H](CCC(=O)O)C(=O)O)cc3)c2c(=O)[nH]1 [PEMETREXED]
IC50: 1.4 µM
